Laboratory results published in article PMC139967.

Experiments:
myosin-1c IQ2 = myosin-1c IQ2 (UniProt O00159)
myosin-1c IQ1 = myosin-1c IQ1 (UniProt O00159)
myosin-1c IQ3 = myosin-1c IQ3 (UniProt O00159)

Question: Which results are given for calmodulin (from UniProt P0DP23)?
Answer: pKd (myosin-1c IQ2): 5.30; pKd (myosin-1c IQ1): 5.30; pKd (myosin-1c IQ3): 5.52

pKd: −log10 of the molar value.
